US5932208A, “Compositions and methods for the use of such compositions in human therapeutics, characterized by the association of a muramyl peptide with a cytokine” (Vacsyn S.A., priority 1993, dated 1999)

Tested on: KHT sarcoma cells
Experiment: KHT sarcoma model in C3H/HeN mice, IL-2 with murametide
Type: in vivo
Procedure: A murine model has been developed in C3H/HeN mice. KHT sarcoma cells are administered by the venous route. After 4 days and 6 days they are treated with:
c) the association of the two immunomodulators;
d) a fourth group is not treated.

IL-2: cytokine interleukin-2
Toxicity of IL-2 in mice having tumours: congregate together and are generally inactive
